These results are taken from patent publication US20250163052A1, “cGAS INHIBITORS AND USES THEREOF” (Cornell University, priority 2022, published 2025).

The nature of the data set: Metabolic stability in human liver microsomes. Background: Liver microsomes are a subcellular fraction often used to study metabolism.

On to `C[C@]12CC[C@H]3[C@@H](CCC4=CC(=O)CC[C@@]43C)[C@@H]1CC[C@@H]2O` [Testosterone, reference compound], for which the “CLint(mic)” value was 109.1 µL/min/mg.
